Yeast mating assay 1: variants of the scFv Ab-14

Antigen: PDVDLGDISGINAS, a 14-residue peptide of the SARS-CoV-2 spike HR2 region.

Each scFv is VH, three GGGGS repeats, VL, as in the parent Ab-14, and differs from it in the CDRs of the light chain only.
VH: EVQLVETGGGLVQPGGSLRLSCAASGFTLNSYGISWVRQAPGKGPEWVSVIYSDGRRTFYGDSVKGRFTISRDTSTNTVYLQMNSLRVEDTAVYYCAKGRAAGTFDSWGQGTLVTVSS
VL: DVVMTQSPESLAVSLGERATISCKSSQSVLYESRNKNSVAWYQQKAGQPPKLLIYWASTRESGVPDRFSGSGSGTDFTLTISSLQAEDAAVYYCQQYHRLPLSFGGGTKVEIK

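The parent was found by panning a naive human phage display library on the peptide. The library (AAYL50) carries one to three amino acid substitutions per variant, with no insertions or deletions. AlphaSeq pools MATa yeast showing the antibodies with MATalpha yeast showing the peptide. Pairs that bind mate more often; barcode pairs of the diploids are counted by sequencing. Scores were corrected for input abundance and mapped to Kd with protein pairs of known affinity run in the same pool. Each pool was mated in three replicate cultures.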

The parent's light chain CDRs are KSSQSVLYESRNKNSVA, WASTRES, QQYHRLPLS; each variant's own CDRs replace them letter for letter. Every variant below is changed at E61 of the VL (sequential numbering). Each Kd is an estimate from the mating assay, the geometric mean of the replicates in which the pair was seen; lower is stronger. An entry "nd" has no value in the source: the pair was not observed among the diploids in any replicate. This suggests poor binding but is not conclusive. Order: sorted from the lowest average up, undetected variants last. Parent in this assay: reference entry 4.4 nM, copy in this library 48 nM.

With KQSQSVLYESRQKNSVA | WASTRHS | QQYHRLPLS the result was 2.0 nM (3 of 3 replicates). With KSSQSVLYESRNYNSVA | WASTRVS | QQYHILPLS the result was 4.3 nM (3 of 3 replicates). For KSSQSVRYESRNTNSVA | WASTRVS | QQYHRLPLS, the assay gave 4.3 nM (3 of 3 replicates). With KSAQSVLEESRNKNSVA | WASTRQS | QQYHRLPLS the result was 8.1 nM (3 of 3 replicates). For KSSQSFLYESQNKNSVA | WASTRSS | QQYHRLPLS, the assay gave 8.3 nM (3 of 3 replicates). The variant KSSQSGLYESRNKNSVA | WASTRGS | QQYHRLPPS gave 11 nM (3 of 3 replicates). For KSSQSVLYESRFKNSVA | WASTRLS | QQYHRPPLS, the assay gave 17 nM (3 of 3 replicates). The variant KSSQSVLYESRSKNAVA | WASTRPS | QQYHRLPLS gave 21 nM (3 of 3 replicates).

The variant KSSQSVLYESRNKNSVA | WASTRWS | QHYHRLPLS gave 23 nM (3 of 3 replicates). The variant KSSQSVLYESRNKNSVA | WASTRVS | QQYHRLPLY gave 30 nM (3 of 3 replicates). For KSSQSVLYESRNQNSVA | WASTRYS | QQYHRYPLS, the assay gave 41 nM (3 of 3 replicates). The variant KSSQSVLSESRNKRSVA | WASTRVS | QQYHRLPLS gave 59 nM (3 of 3 replicates). With KSSQSVLYESRDKNSVA | WVSTRTS | QQYHRLPLS the result was 70 nM (3 of 3 replicates). The variant KSSQSVLYHSRNKNSVA | WASTRSS | QQYHHLPLS showed 94 nM (3 of 3 replicates). The variant KSSQSVDYESRNKNSVA | WASTRRS | QYYHRLPLS gave 100 nM (3 of 3 replicates). The variant KSSQSVLYESRNKNSMA | WASTRDS | QQYHRLPLS showed 120 nM (3 of 3 replicates).

With KSSQSVLYEVRNKNSVA | WASTRTS | QQYHRLPLS the result was 160 nM (2 of 3 replicates). With KSSQSVLYESRNKNSVA | WASTRMS | QKYTRLPLS the result was 200 nM (1 of 3 replicates). For KSSQSVCYESRNKNSVA | WASTRYS | QQYERLPLS, the assay gave 290 nM (3 of 3 replicates). The variant MSSQSVLYESRNKNSVA | WASTRTV | QQYHRLPLS gave 380 nM (2 of 3 replicates). The variant KSSQSVLYESRNKNSVA | WAMTRRT | QQYHRLPLS showed 450 nM (1 of 3 replicates). For KSSQSVLYESRNKNSVA | WASARPS | QWYHRLPLS, the assay gave 460 nM (3 of 3 replicates). The variant KSSQSVGYESRNKNSVA | WASTRPS | QRYHRLPLS showed 2.0 µM (3 of 3 replicates). The variant KSSQSVLYESRNKPSVA | WASTRTS | QQYHRLALS showed 2.2 µM (2 of 3 replicates).

For KSSQSVLYESRNKNSVA | WASTGSS | QQYHRFPLS, the assay gave 2.3 µM (1 of 3 replicates). The variant KSSQSVLYMSRNKNSVA | WASTRRS | QQYHSLPLS showed 2.6 µM (3 of 3 replicates). With MSSQSVLRESRNKNSVA | WASTRRS | QQYHRLPLS the result was 5.8 µM (1 of 3 replicates). The variant KSSQSVLYESRNKNSVA | WASTRDY | QQYHRLPVS showed 7.5 µM (1 of 3 replicates). The variant KSSQSVLYESRNKNSVA | WASTRHS | QQDHRLYLS gave 13 µM (1 of 3 replicates). The variant KKSQSVLYESRNKNSVA | WASPRTS | QQYHRLPLS showed 22 µM (3 of 3 replicates). With SSSQSVLYESRNKNSRA | WASTRMS | QQYHRLPLS the result was 37 µM (1 of 3 replicates). For KSSQSVLYESRNKNSHA | AASTRNS | QQYHRLPLS, the assay gave 39 µM (1 of 3 replicates).

With KSSQSVLYESRNKVSVA | WASTRHS | QQYHVLPLS the result was 46 µM (3 of 3 replicates). For KSSQSVLRESRNKNSVA | WASTRDS | QQYHRLQLS, the assay gave 150 µM (2 of 3 replicates). The variant ISSQSVLYESRNKNSVA | WASTRRS | QQYHRMPLS showed 160 µM (1 of 3 replicates). The variant KSSQSVLYESRNKNSVA | WASTRGS | QQYHNLPSS gave 240 µM (1 of 3 replicates). For KSSQSVQYESRNKNSVA | WYSTRSS | QQYHRLPLS, the assay gave 550 µM (1 of 3 replicates). For KSSQSVLYESRNKQSVA | WASTRTS | QQYHRLPLH, the assay gave 1.0 mM (1 of 3 replicates). For KSSQSRLYESRNKNSVT | WASTRDS | QQYHRLPLS, the assay gave nd (0 of 3 replicates). For KSSQSVLYESRNKKSYA | WASTRTS | QQYHRLPLS, the assay gave nd (0 of 3 replicates).

With KSSQSVLYESRNKNIVA | WASTRYS | QQYHRLPGS the result was nd (0 of 3 replicates). The variant KSSQSVLYESRNKNSVA | WASTRVS | QQYPRLPLN showed nd (0 of 3 replicates). The variant KSSQSVLYESRNKNSVA | WASTRIL | QQRHRLPLS gave nd (0 of 3 replicates). The variant KSSQSVLYESRNVNVVA | WASTRTS | QQYHRLPLS gave nd (0 of 3 replicates). The variant KSSQSVLYESRNKCSVL | WASTRCS | QQYHRLPLS showed nd (0 of 3 replicates). The variant KSSQSVLYESRNKNSVA | WASTRHS | YQYHRLPYS gave nd (0 of 3 replicates). The variant KSSQSVWYESRNKMSVA | WASTRAS | QQYHRLPLS showed nd (0 of 3 replicates). For KYSQSVLYESRNKNSNA | WASTRPS | QQYHRLPLS, the assay gave nd (0 of 3 replicates).

With KSMQSVLYESRNKNSVA | WASTRQS | QCYHRLPLS the result was nd (0 of 3 replicates). The variant KSSQSVLYESRNKNSVA | WASTRPE | QQYHRPPLS gave nd (0 of 3 replicates).

Background: pairings of library AAYL50 with three empty control strains gave a value in 18% of cases (median 15 µM, 5th percentile 970 nM). Values in that range, when seen in few replicates, are hard to tell from nonspecific mating.

The measurements come from Engelhart et al. 2022 (doi:10.1038/s41597-022-01779-4) through the FLAb antibody collection.